Reference: ChEMBL document CHEMBL5380794, “Discovery of a Potent and Selective STAT5 PROTAC Degrader with Strong Antitumor Activity In Vivo in Acute Myeloid Leukemia” (J Med Chem, 2023)

Legend:
Assay type in all cases: cell-based
[1] = biological target: T1, Signal transducer and activator of transcription 5A (Homo sapiens) (UniProt P42229); assay: Induction of STAT5 degradation in human Kasumi-3 cells assessed as reduction in phosphorylated STAT5 level by measuring maximal efficacy measured for 18 hrs by immunoblotting analysis relative to control
T1 sequence (whole entry): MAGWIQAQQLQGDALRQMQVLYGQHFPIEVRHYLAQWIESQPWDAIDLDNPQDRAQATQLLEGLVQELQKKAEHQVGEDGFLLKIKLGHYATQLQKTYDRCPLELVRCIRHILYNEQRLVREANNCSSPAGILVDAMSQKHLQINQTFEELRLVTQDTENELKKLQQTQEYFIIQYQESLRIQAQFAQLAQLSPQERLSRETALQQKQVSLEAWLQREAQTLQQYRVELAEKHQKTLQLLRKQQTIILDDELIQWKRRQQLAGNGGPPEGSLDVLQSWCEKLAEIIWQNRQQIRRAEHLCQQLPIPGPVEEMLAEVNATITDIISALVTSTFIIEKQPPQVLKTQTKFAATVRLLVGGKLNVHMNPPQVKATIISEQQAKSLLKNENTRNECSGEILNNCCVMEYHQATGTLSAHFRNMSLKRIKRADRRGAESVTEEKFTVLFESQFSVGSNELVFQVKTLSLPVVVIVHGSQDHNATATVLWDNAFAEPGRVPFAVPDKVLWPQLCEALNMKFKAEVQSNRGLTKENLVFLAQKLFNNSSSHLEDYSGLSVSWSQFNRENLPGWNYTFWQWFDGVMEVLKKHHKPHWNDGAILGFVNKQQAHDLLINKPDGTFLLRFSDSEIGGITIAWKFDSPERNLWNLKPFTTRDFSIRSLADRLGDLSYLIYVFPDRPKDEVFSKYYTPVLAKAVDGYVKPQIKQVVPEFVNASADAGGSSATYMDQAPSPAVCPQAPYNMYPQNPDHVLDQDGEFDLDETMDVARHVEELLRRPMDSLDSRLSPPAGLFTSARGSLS

[2] = biological target: T1, Signal transducer and activator of transcription 5A (Homo sapiens); assay: Induction of STAT5 degradation in human SKNO-1 cells assessed as reduction in phosphorylated STAT5 level by measuring maximal efficacy measured for 18 hrs by immunoblotting analysis relative to control
[3] = biological target: T2, STAT5A/STAT5B (Homo sapiens) (UniProt P42229+P51692); assay: Induction of STAT5A/5B degradation in human MV4-11 cells assessed as maximal degradation measured for 6 hrs by immunoblotting analysis relative to control
[4] = biological target: T1, Signal transducer and activator of transcription 5A (Homo sapiens); assay: Inhibition of STAT5 phosphorylation in human SKNO-1 cells assessed as reduction in STAT3 phosphorylation at Y694 residue at 1 uM measured for 18 hrs by Western blot analysis
[5] = biological target: T1, Signal transducer and activator of transcription 5A (Homo sapiens); assay: Induction of STAT5 degradation in human MV4-11 cells assessed as reduction in phosphorylated STAT5 level by measuring maximal efficacy measured for 6 hrs by immunoblotting analysis relative to control
[6] = biological target: T2, STAT5A/STAT5B (Homo sapiens); assay: Induction of STAT5A/5B degradation in human MOLM-13 cells assessed as maximal degradation measured for 18 hrs by immunoblotting analysis relative to control
[7] = biological target: T1, Signal transducer and activator of transcription 5A (Homo sapiens); assay: Induction of STAT5 degradation in human OCI-M2 cells assessed as reduction in phosphorylated STAT5 level by measuring maximal efficacy measured for 18 hrs by immunoblotting analysis relative to control
[8] = biological target: T2, STAT5A/STAT5B (Homo sapiens); assay: Induction of STAT5A/5B degradation in human OCI-M2 cells assessed as maximal degradation measured for 18 hrs by immunoblotting analysis relative to control
[9] = biological target: T1, Signal transducer and activator of transcription 5A (Homo sapiens); assay: Induction of STAT5 degradation in human RS4-11 cells assessed as reduction in phosphorylated STAT5 level by measuring maximal efficacy measured for 18 hrs by immunoblotting analysis relative to control
[10] = biological target: T2, STAT5A/STAT5B (Homo sapiens); assay: Induction of STAT5A/5B degradation in human OCI-AML2 cells assessed as maximal degradation measured for 18 hrs by immunoblotting analysis relative to control
[11] = biological target: T1, Signal transducer and activator of transcription 5A (Homo sapiens); assay: Induction of STAT5 degradation in human BDCM cells assessed as reduction in phosphorylated STAT5 level by measuring maximal efficacy measured for 18 hrs by immunoblotting analysis relative to control
[12] = biological target: T1, Signal transducer and activator of transcription 5A (Homo sapiens); assay: Inhibition of STAT5A phosphorylation in human SKNO-1 cells assessed as reduction in STAT5A level at 0.2 uM measured for 18 hrs by Western blot analysis
[13] = biological target: T3, Signal transducer and activator of transcription 5B (Homo sapiens) (UniProt P51692); assay: Inhibition of STAT5B phosphorylation in human SKNO-1 cells assessed as reduction in STAT5A level at 0.2 uM measured for 18 hrs by Western blot analysis
T3 sequence (whole entry): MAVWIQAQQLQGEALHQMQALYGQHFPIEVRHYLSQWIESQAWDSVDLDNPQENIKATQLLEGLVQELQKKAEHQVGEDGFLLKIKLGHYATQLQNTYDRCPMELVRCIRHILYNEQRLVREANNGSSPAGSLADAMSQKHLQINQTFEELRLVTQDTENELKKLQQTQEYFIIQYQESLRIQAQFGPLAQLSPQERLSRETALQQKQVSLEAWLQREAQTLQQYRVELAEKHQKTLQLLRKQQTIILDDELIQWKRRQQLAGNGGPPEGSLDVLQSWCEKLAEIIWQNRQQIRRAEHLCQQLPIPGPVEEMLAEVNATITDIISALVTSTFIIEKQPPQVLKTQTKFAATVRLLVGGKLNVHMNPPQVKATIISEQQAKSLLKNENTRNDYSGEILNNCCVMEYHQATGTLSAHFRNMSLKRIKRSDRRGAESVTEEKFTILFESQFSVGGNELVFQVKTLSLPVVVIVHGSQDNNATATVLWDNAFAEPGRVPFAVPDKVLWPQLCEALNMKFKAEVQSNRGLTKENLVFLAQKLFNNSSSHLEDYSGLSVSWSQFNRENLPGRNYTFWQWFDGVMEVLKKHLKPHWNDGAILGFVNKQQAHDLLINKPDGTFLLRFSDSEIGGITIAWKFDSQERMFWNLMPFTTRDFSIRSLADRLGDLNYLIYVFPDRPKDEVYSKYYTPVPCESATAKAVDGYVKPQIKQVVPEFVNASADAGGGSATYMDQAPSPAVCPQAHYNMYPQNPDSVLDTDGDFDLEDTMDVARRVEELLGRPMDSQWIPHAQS

[14] = biological target: T2, STAT5A/STAT5B (Homo sapiens); assay: Induction of STAT5A/5B degradation in human HL-60 cells assessed as maximal degradation measured for 18 hrs by immunoblotting analysis relative to control
[15] = biological target: T1, Signal transducer and activator of transcription 5A (Homo sapiens); assay: Induction of STAT5 degradation in human HL-60 cells assessed as reduction in phosphorylated STAT5 level by measuring maximal efficacy measured for 18 hrs by immunoblotting analysis relative to control
[16] = biological target: T1, Signal transducer and activator of transcription 5A (Homo sapiens); assay: Inhibition of STAT5 phosphorylation in human MV4-11 cells assessed as reduction in STAT5 level at 0.2 uM measured for 6 hrs by Western blot analysis
[17] = biological target: T1, Signal transducer and activator of transcription 5A (Homo sapiens); assay: Induction of STAT5 degradation in human OCI-AML2 cells assessed as reduction in phosphorylated STAT5 level by measuring maximal efficacy measured for 18 hrs by immunoblotting analysis relative to control
[18] = biological target: T1, Signal transducer and activator of transcription 5A (Homo sapiens); assay: Induction of STAT5 degradation in human MOLM-13 cells assessed as reduction in phosphorylated STAT5 level by measuring maximal efficacy measured for 18 hrs by immunoblotting analysis relative to control
[19] = biological target: T2, STAT5A/STAT5B (Homo sapiens); assay: Induction of STAT5A/5B degradation in human BDCM cells assessed as maximal degradation measured for 18 hrs by immunoblotting analysis relative to control
[20] = biological target: T2, STAT5A/STAT5B (Homo sapiens); assay: Induction of STAT5A/5B degradation in human RS4-11 cells assessed as maximal degradation measured for 18 hrs by immunoblotting analysis relative to control
[21] = biological target: T2, STAT5A/STAT5B (Homo sapiens); assay: Induction of STAT5A/5B degradation in human Kasumi-3 cells assessed as maximal degradation measured for 18 hrs by immunoblotting analysis relative to control
[22] = biological target: T1, Signal transducer and activator of transcription 5A (Homo sapiens); assay: Inhibition of STAT5 phosphorylation in human MV4-11 cells assessed as reduction in STAT3 phosphorylation at Y694 residue at 1 uM measured for 6 hrs by Western blot analysis
[23] = biological target: T2, STAT5A/STAT5B (Homo sapiens); assay: Induction of STAT5A/5B degradation in human SKNO-1 cells assessed as maximal degradation measured for 18 hrs by immunoblotting analysis relative to control

Emax [1]: > 95%
Emax [2]: > 95%
Emax [3]: > 95%
inhibition [4]: > 95%
Emax [5]: > 95%
Emax [6]: inactive
Emax [7]: inactive
Emax [8]: 90%
Emax [9]: inactive
Emax [10]: > 95%
Emax [11]: inactive
inhibition [12]: > 75%
inhibition [13]: > 72%
Emax [14]: inactive
Emax [15]: inactive
inhibition [16]: > 80%
Emax [17]: inactive
Emax [18]: inactive
Emax [19]: > 95%
Emax [20]: > 95%
Emax [21]: > 95%
inhibition [22]: > 95%
Emax [23]: > 95%
Compound: CN(CCCC#Cc1cccc2c1CN(C1CCC(=O)NC1=O)C2=O)C(=O)CCN(C(=O)[C@@H]1CCCN1C(=O)[C@@H](NC(=O)c1cc2cc(C(F)(F)P(=O)(O)O)ccc2s1)C(C)(C)C)c1ccc(-c2nccs2)cc1 (stereo partly drawn)

The source made the active and inactive calls. The rule behind the calls is not given here.
